Ab-14 light chain CDR variants: yeast mating affinities

Values reported by Li et al. 2023, doi:10.1038/s41467-023-39022-2 (FLAb copy).

Antigen: PDVDLGDISGINAS, a 14-residue peptide of the SARS-CoV-2 spike HR2 region.

Parent scFv Ab-14: VH joined to VL by three GGGGS repeats. Changes lie in the light chain CDRs alone.
VH: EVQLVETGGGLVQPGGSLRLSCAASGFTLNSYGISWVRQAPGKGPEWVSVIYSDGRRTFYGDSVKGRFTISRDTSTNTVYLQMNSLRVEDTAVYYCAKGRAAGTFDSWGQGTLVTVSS
VL: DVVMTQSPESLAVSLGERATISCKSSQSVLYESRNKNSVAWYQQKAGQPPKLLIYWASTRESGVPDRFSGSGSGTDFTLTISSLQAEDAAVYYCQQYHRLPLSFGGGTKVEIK

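This is the validation round: designs drawn from the data on random variants, tested in the same kind of assay. Several design methods are mixed in this list. The assay is AlphaSeq: two haploid yeast populations carry antibody and antigen on their surface. Binding brings cells together so that they mate, and sequencing counts the barcode pairs among the diploids. Scores were corrected for input abundance and mapped to Kd with protein pairs of known affinity run in the same pool. There are six technical replicates.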

Variants are written as CDR1, CDR2 and CDR3 of the light chain (limits as in the source). Parent: KSSQSVLYESRNKNSVA, WASTRES, QQYHRLPLS.
Numbers give log10(Kd / nM), so 0 is 1 nM and 3 is 1 µM. Smaller is tighter.
An entry "ND" has no value in the source: the pair was not observed among the diploids in that replicate. This suggests poor binding but is not conclusive.
Three control strains display no target. For all light chain designs, 4% of the pairings with them gave a signal, with a median of 2.64 and one signal in twenty below 1.59, so weak values seen in few replicates may be background.

CDR-L1,CDR-L2,CDR-L3,"log10 Kd, replicates"
IVSQLMLWGYHAKNSIA,EAETRLN,QQYDRLPLF,0.87 0.91 1.01 0.52 1.27 1.31
KLSQSQLYESRNKNSVA,NASTRSS,QQYHRLPLS,0.10 0.06 -0.01 -0.14 -0.07 0.01
KLRQSTGYEMRNKDSIA,DNSTRGR,QQYHRLPLS,ND 2.37 ND ND 2.26 3.24
KVSISYLYESRNKNSVA,AASTRES,QQYHRLPLS,0.24 0.09 -0.05 0.24 0.09 0.35
KLPQSELYESRNKNSVA,EASQRES,QQYHRLPLS,0.00 -0.14 -0.24 -0.11 -0.06 -0.12
KLSQSQEYESINKNSVA,NASTRLT,QQYHRLPLS,0.01 -0.18 -0.35 -0.32 -0.25 -0.05
KISMLYRYESQEKNSIA,EMSTREE,QSYHRLPLS,ND ND 1.44 ND ND ND
KSSQKVLYESRNKNSVA,WASLRES,QQYHRLPLY,ND 1.77 ND ND ND ND
KSIQSVLDYSRNKNSVA,WASTRES,QQYDRLPLS,ND ND ND ND 2.98 ND
HIGGVLEGENVKGRSVA,HMNTRED,QQYDRLPLS,-0.07 -0.18 -0.23 -0.34 -0.08 -0.19
MISQVMNTLTRHGNNVA,DLQNRES,QQYFRLPLS,1.45 0.98 0.94 1.25 1.74 1.31
KLSQSYLYESRNKNSVA,NASQREV,QQYHRLPLS,-0.15 -0.33 -0.27 -0.45 -0.32 -0.01
TVSQVHEMLSHNKNSVA,DMNTREE,QQYDRLPLS,0.32 -0.25 1.00 0.06 0.24 1.06
KFRQSVLYESRNKNSVA,WASTRES,QQYHRLPLS,0.84 0.72 0.15 0.51 0.50 0.73
KSSQSVLYESRNGNSVA,MASTRWS,QQYHRLPLS,1.70 1.48 1.58 1.57 1.64 1.82

Second part, the sequence after the result:

"log10 Kd, replicates",CDR-L1,CDR-L2,CDR-L3
0.39 0.55 0.19 0.29 0.46 0.38,KISQSIMFMSGNKNAIA,QMEMREE,QQYHRLPLS
0.72 0.65 0.58 0.75 0.66 1.18,KISQMVTYESTWWNAIA,QTSTREE,QQYHRLPLS
0.40 0.20 0.38 0.07 0.25 0.34,KLSQSVELQSRNKNAVA,SASTRES,QQYHRLPLS
ND ND ND ND ND ND,KTSQSVLYESRNKNSVA,YATTRES,YQYHDLPLS
0.84 1.04 0.84 0.72 0.37 0.55,QLAVDRLQEYEMGDAIA,GKTLRED,QQYARLPLS
0.33 0.17 0.12 0.03 0.14 0.36,QVQYAPGESLRHTNSIA,DVNIKDM,QQYSRLPLS
ND 5.11 2.55 ND 3.82 3.56,KSSQSVLYEGRNKNSVA,WASTRHS,QQYHRLPLS
-0.19 -0.20 -0.12 -0.29 -0.34 -0.08,HVHMEMAEEKEIRHNIA,DASMRYA,QQYVRLPLG
1.19 1.14 0.67 0.70 0.85 1.05,FMGGTKTMQSNEIGNVA,DMNERFA,QQYFQLPLS
0.70 0.27 1.35 0.60 -0.33 0.11,VANLPFNEVGPDKQNVA,NAEIRED,QQYFRLPIL
0.48 0.75 0.41 0.63 0.52 0.65,KLGAATRFESSNKASIA,NNSTREE,QQYHRLPLS
-0.15 -0.34 -0.33 -0.43 -0.39 -0.17,KSSQSWLYESRNKNSVA,GASTRED,QQYHRLPLS
ND 2.26 ND 1.73 2.80 3.66,KSSQSVLYESRNTNSVA,WASERES,QDYHDLPLS
2.14 1.73 0.46 0.84 1.82 1.01,MMDNCQEGYYQQNNNVA,EMNARMM,QQYGRLPLM
1.55 0.85 1.03 1.12 1.30 0.63,KLYVSTMLESHDKNSIA,DLSTRGN,QQYHRLPLS
0.04 -0.12 -0.09 -0.51 -0.32 -0.17,HSSQSVPYESRNKNSVA,NASTREE,QDYHRLPLS

Excerpt, the first 5 entries:

CDR-L1,CDR-L2,CDR-L3,"log10 Kd, replicates"
IVSQLMLWGYHAKNSIA,EAETRLN,QQYDRLPLF,0.87 0.91 1.01 0.52 1.27 1.31
KLSQSQLYESRNKNSVA,NASTRSS,QQYHRLPLS,0.10 0.06 -0.01 -0.14 -0.07 0.01
KLRQSTGYEMRNKDSIA,DNSTRGR,QQYHRLPLS,ND 2.37 ND ND 2.26 3.24
KVSISYLYESRNKNSVA,AASTRES,QQYHRLPLS,0.24 0.09 -0.05 0.24 0.09 0.35
KLPQSELYESRNKNSVA,EASQRES,QQYHRLPLS,0.00 -0.14 -0.24 -0.11 -0.06 -0.12

The authors averaged sequences with at least three values out of six and counted those with two or fewer as poor binders.
The range of this assay differs from that of the first round, and the authors advise against merging the two.